# The list is not random: actives were taken first. Their share in the collection is about 1.2%.
# miR122 inh = blocks miR-122 activity in Huh7 sensor cells. Huh7 miR-122 Renilla luciferase sensor, 48 h; neutral wells = 0, positive control = 100. activation (reporter increase), % at 12.5 µM. 340,000 tested, 0.3% active. AID 602342;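 active = mean replicate activation score at least 90 and every replicate individually at or above 90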;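 also: higher luciferase means less miR-122 activity so hits act as miR-122 inhibitors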
# C2C12 statin = suppressors of simvastatin-induced myotoxicity in C2C12 myotubes | ATP luminescence, 48 h; scaled: DMSO 0, geranylgeraniol control 100 | rescue of ATP level, % at 7.49 µM | 330,000 tested, 0.78% active | AID 602340;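 active = mean ATP rescue above about 67%, or every replicate alone reaching that limit, limit read from the data, passing the limit was not always enough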;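 also: myotubes were challenged with 10 µM simvastatin during compound exposure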
# UUG fidelity = modulators of start codon recognition fidelity in yeast; AID 602363; activity score, % at 18.7 µM; S. cerevisiae UUG-firefly luciferase reporter, luminescence/redox ratio; actives 0.13% (n = 350,000);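 active = replicate mean at a twofold rise or more, about +100% in these data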;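 note: firefly luciferase made from a UUG start codon reports start codon fidelity; reporter light over untreated wells divided by growth signal over untreated wells; some hits fall short of that in this replicate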
# Glyco luc inh = blocks N-linked glycosylation in D54 reporter cells. D54 ERlucT glycosylation luciferase reporter, 24 h; percent of 100 nM tunicamycin response. reporter increase, % at 12.5 µM. 360,000 tested, 0.23% active. AID 588692;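 active = mean luciferase reporter signal, scaled so untreated is 0 and the glycosylation-blocking control 100, at or above a set limit in every replicate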;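 also: luciferase carries N-glycosylation sites so blocking glycosylation raises the light; 0% = median of neutral control wells and 100% = median of 100 nM tunicamycin wells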
# Cneo AK release = Cryptococcus neoformans lysis via adenylate kinase release; 360,000 tested, 0.2% active; C. neoformans lysis, adenylate kinase release luminescence, 4 h; normalised: neutral wells 0, clomiphene wells 100; lysis activity, % at 15 µM;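 active = mean lysis activity across replicates of at least 80%, whatever share of replicates individually reach that level; inactive = mean lysis activity below 80%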
#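 Assay system: Cryptococcus neoformans yeast cells / Dosing: single-point compound dose / Timing: 4 h at 37 °C static, read 1 h later / Measured by: luminescence of released adenylate kinase using an AK detection reagent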
# * hit, by the source's call; · = no result; [ ] = dose if it differs, or a comment.
molecule	miR122 inh	C2C12 statin	UUG fidelity	Glyco luc inh	Cneo AK release
COc1ccccc1-n1cnc2cc(NCc3ccco3)ccc21	74	73*	-9	15	2
COc1ccc(CNC(=O)C2CCCN(S(=O)(=O)c3c(C)n[nH]c3C)C2)cc1 (stereo not drawn)	4	11	-13	0	1
COc1cccc(CNC(=O)C2CCCN(S(=O)(=O)c3c(C)n[nH]c3C)C2)c1 (stereo not drawn)	0	75*	-1	1	0
COCC(=O)N1C[C@@H](C)[C@H](OC)CN(C)C(=O)c2ccc(NC(=O)NC(C)C)cc2OC[C@@H]1C	-2[16.7 µM]	5	1	·	0
Cc1noc(C)c1NC(=O)N(C)C[C@H]1OCCCC[C@H](C)Oc2ccc(NC(=O)NC(C)C)cc2C(=O)N([C@@H](C)CO)C[C@@H]1C	78[16.7 µM]	·	22	·	90*
Cc1noc(C)c1NC(=O)N(C)C[C@@H]1OCCCC[C@H](C)Oc2ccc(NC(=O)NC(C)C)cc2C(=O)N([C@@H](C)CO)C[C@H]1C	2[16.7 µM]	·	-1	·	1
Cc1noc(C)c1NC(=O)N(C)C[C@H]1OCCCC[C@@H](C)Oc2ccc(NC(=O)NC(C)C)cc2C(=O)N([C@H](C)CO)C[C@H]1C	12[16.7 µM]	·	43	·	100*
CC1(Cc2ccc3c(c2)OCO3)C(=O)Nc2c(Cl)ccc(Cl)c21 (stereo not drawn)	-5	88*	16	-5	-3
CC1(Cc2ccc3c(c2)OCO3)C(=O)Nc2ccc(-c3cccc(C(F)(F)F)c3)cc21 (stereo not drawn)	-1	12	7	-3	-10
O=C(OCc1nnc(-c2ccccc2)o1)c1cc2ccccc2cc1O	·	·	·	0	·
CC(C)COc1cc(=O)[nH]c(SCC(C)C)n1	-3	148*	-15	-1	1
COc1cccc(OC)c1OCCCSc1nc(C)cc(=O)[nH]1	0	-2	·	3	·
COc1cccc(S(=O)(=O)N(C)C[C@H]2OCc3cnnn3CCCC(=O)N([C@@H](C)CO)C[C@@H]2C)c1	-5	-1	-1	3	-1
NC(=O)CC(NC(=O)Cc1ccc(Br)cc1)c1ccc(NCC2CC2)c([N+](=O)[O-])c1 (stereo not drawn)	0	-1	-16	45*	-6
NC(=O)CC(NC(=O)Cc1ccc(Br)cc1)c1ccc(NCc2ccc(F)cc2)c([N+](=O)[O-])c1 (stereo not drawn)	8	11	-22	4	6
NC(=O)CC(NC(=O)Cc1ccc(Cl)cc1)c1ccc(NCC2CC2)c([N+](=O)[O-])c1 (stereo not drawn)	16	-8	-9	43*	6
CCOc1ccc2nc(N3CCCC(C(=O)N4CCN(CC)CC4)C3)sc2c1 (stereo not drawn)	2	116*	-8	-1	-3
CCCN1CCN(CCCNC(=O)C2CCCN(c3nc4ccc(OCC)cc4s3)C2)CC1 (stereo not drawn)	-6	-6	2	-7	-1
C[C@H]1CN([C@@H](C)CO)S(=O)(=O)c2ccc(-c3cccc(C(=O)N(C)C)c3)cc2O[C@@H]1CN(C)C(=O)Cc1ccccn1	·	6	-5	·	-13
COc1ccc(Br)cc1CNC(=O)Nc1cccs1	106*	36	-18	-4	0
COc1ccccc1CNC(=O)Nc1cccs1	5	·	-13	0	-2
CCC(=O)c1cc(F)c(N2CCN(S(=O)(=O)c3ccc(C)cc3)CC2)cc1C	-2	17	-6	-5	9
CC(=O)OC1CC(n2ccc(NC(=O)c3ccccc3)nc2=O)OC1CO (stereo not drawn)	-3	128*	-7	1	-2
Cc1ccc(CC(=S)N2CCOCC2)cc1	0	124*	-19	-2	3
CCc1ccc(CC(=S)N2CCOCC2)cc1	-6	2	-20	-3	-2
COc1ccc(CC2(CO)CCN(S(=O)(=O)c3sccc3C)CC2)cc1	·	·	·	-1	·
CO[C@H]1CN(C)C(=O)c2ccc(NC(=O)C3CC3)cc2OC[C@@H](C)N(CCc2ccccc2)C[C@H]1C	3[16.7 µM]	4	8	·	-1
CCOc1ccc(NCc2cccn2-c2nnc(N3CCC(C(=O)NCCCN4CCCCC4C)CC3)s2)cc1 (stereo not drawn)	5	17	-13	-1	2

# A different layout for some results above.
# Below each compound – miR122 inh, C2C12 statin, UUG fidelity, Glyco luc inh, Cneo AK release
Cc1noc(C)c1NC(=O)N(C)C[C@H]1OCCCC[C@@H](C)Oc2ccc(NC(=O)NC(C)C)cc2C(=O)N([C@H](C)CO)C[C@H]1C
 : 12[16.7 µM], ·, 43, ·, 100*
CC1(Cc2ccc3c(c2)OCO3)C(=O)Nc2c(Cl)ccc(Cl)c21 (stereo not drawn)
 : -5, 88*, 16, -5, -3
CC1(Cc2ccc3c(c2)OCO3)C(=O)Nc2ccc(-c3cccc(C(F)(F)F)c3)cc21 (stereo not drawn)
 : -1, 12, 7, -3, -10

# Screening results: PubChem BioAssay, Broad Institute
